# Data reported in ChEMBL document CHEMBL1126150, “New kappa-receptor agonists based upon a 2-[(alkylamino)methyl]piperidine nucleus” (J Med Chem, 1992).
# Test system: Mus musculus
# Assay: Antinociceptive activity was determined using the mouse acetylcholine-induced abdominal constriction test followed by subcutaneous administration
# Details: Abdomen
structure (smiles),measurement,value
CN(C(=O)Cc1ccc(Cl)c(Cl)c1)C1CCCCC1N1CCCC1 (stereo unspecified),ED50,0.41 mg/kg
